Assay results as given in ChEMBL document CHEMBL1135592, “Structural determinants of A(3) adenosine receptor activation: nucleoside ligands at the agonist/antagonist boundary” (J Med Chem, 2002).

By UniProt entry, the sequences of proteins in these tests, tags left out.
UniProt P0DMS8, whole entry: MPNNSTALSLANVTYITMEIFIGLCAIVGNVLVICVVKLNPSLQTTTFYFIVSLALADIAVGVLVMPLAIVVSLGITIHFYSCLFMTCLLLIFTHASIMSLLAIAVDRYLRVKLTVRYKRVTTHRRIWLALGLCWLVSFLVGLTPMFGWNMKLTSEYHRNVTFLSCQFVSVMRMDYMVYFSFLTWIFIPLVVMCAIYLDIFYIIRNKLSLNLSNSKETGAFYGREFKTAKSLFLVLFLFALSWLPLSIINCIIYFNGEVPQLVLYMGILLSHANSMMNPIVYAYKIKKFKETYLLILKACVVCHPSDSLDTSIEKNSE

Key:
Adenosine receptor A3 [1] = molecular target: T1, Adenosine receptor A3 (Homo sapiens, UniProt P0DMS8); assay: Affinity for human Adenosine A3 receptor expressed in CHO cell; type: cell-based
Adenosine receptor A3 [2] = molecular target: T1, Adenosine receptor A3; assay: Effect on forskolin-stimulated cyclic AMP production in intact chinese hamster ovary (CHO) cell expressing the human Adenosine A3 receptor; type: functional

Row | Ki (Adenosine receptor A3 [1]) | EC50 (Adenosine receptor A3 [2]) | SMILES
1 | 8.7 nM | 27 nM | C[C@H](Cc1ccccc1)Nc1ncnc2c1ncn2[C@@H]1O[C@H](CO)[C@@H](O)[C@H]1O [(R)-PIA]
2 | 68 nM | 210 nM | C[C@@H](Cc1ccccc1)Nc1ncnc2c1ncn2[C@@H]1O[C@H](CO)[C@@H](O)[C@H]1O [(S)-PIA]
